Laboratory results as given in US12540163B2 (priority 2021, dated 2026).

By UniProt entry, the sequences of proteins in these tests, tags left out. Where a name states a change or a piece, a line headed by the entry shows the natural chain unless it says otherwise.
UniProt Q96D96: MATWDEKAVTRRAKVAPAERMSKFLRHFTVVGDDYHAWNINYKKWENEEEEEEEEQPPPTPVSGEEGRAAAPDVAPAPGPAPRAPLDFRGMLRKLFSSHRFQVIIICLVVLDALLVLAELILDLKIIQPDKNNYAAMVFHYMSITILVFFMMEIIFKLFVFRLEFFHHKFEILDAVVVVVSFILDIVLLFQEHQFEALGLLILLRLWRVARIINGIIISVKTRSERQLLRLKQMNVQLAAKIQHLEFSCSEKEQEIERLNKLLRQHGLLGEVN

Tests used:
hHv1 = hHv1 (Homo sapiens, UniProt Q96D96)

For ethylene glycol tetraacetic acid [EGTA], the “Sperm H+ current V1/2 after application” value (hHv1 in human sperm) was −10 ± 4 mV, the “Sperm H+ current V1/2 shift” value (hHv1 in human sperm) was 27 mV and the “hHv1 in HEK293T cells V1/2 after application” value (hHv1) was −25±2 mV.
